Data taken from US7750036B2, “Carvedilol salts, corresponding compositions, methods of delivery and/or treatment” (SB Pharmco Puerto Rico Inc., priority 2004, dated 2010).

Assay: Solubility in water of carvedilol free base and salts (shaken vials, UV-Vis)
Conditions: for solubility in water: room temperature

Compound	pH value when dissolved in water	Aqueous Solubility (Table 11, 25° C., 1 hr)	pH of the filtered solution (Table 11, 25° C., 1 hr)	Aqueous Solubility (Table 11, 25° C., 4 hr)	pH of the filtered solution (Table 11, 25° C., 4 hr)	Aqueous Solubility (Table 11, 25° C., 24 hr)	pH of the filtered solution (Table 11, 25° C., 24 hr)	Aqueous Solubility (Table 11, 25° C., 48 hr)	pH of the filtered solution (Table 11, 25° C., 48 hr)	aqueous solubility compared with free base (Table 13)	Aqueous Solubility (Table 13, 25° C., 1 hr)	pH of the solution (Table 13, 25° C., 1 hr)	Aqueous Solubility (Table 13, 25° C., 4 hr)	pH of the solution (Table 13, 25° C., 4 hr)	Aqueous Solubility (Table 13, 25° C., 24 hr)	pH of the solution (Table 13, 25° C., 24 hr)	solubility in water (at 1 hour) [µg/mL]	solubility in water (at 48 hour) [µg/mL]
COc1ccccc1OCCNCC(O)COc1cccc2[nH]c3ccccc3c12.O.O=C(O)CC(O)(CC(=O)O)C(=O)O (centres unmarked) [Carvedilol Mono-Citrate Salt, Carvedilol Monocitrate Monohydrate]	~3	1.63 mg of carvedilol free base/mL of solution	3.5	1.47 mg of carvedilol free base/mL of solution	3.4	1.07 mg of carvedilol free base/mL of solution	3.0	1.02 mg of carvedilol free base/mL of solution	3.0	much better aqueous solubility than the free base	1.64 mg of Carvedilol free base/mL of solution	3.3	1.74 mg of Carvedilol free base/mL of solution	3.2	1.46 mg of Carvedilol free base/mL of solution	3.2	1630	1020
COc1ccccc1OCCNCC(O)COc1cccc2[nH]c3ccccc3c12 (racemic) [Carvedilol]	–	–	–	–	–	0.0116 mg of carvedilol free base/mL of solution	–	–	–	–	–	–	–	–	–	(pH = 7.0)	–	–
